Laboratory results from US20220024983A1, “BICYCLIC PEPTIDE LIGANDS SPECIFIC FOR IL-17” (BicycleRD Limited, priority 2018, published 2022).

T1: human IL-17A dimer (human, UniProt Q16552 24-155)
T1 construct: also called hIL17-A
T1 sequence (looked up): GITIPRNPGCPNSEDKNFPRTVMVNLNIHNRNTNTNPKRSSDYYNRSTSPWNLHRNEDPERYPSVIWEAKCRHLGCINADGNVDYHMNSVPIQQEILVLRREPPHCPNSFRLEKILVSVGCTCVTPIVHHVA


Key:
human IL-17A dimer [1] = target: T1, human IL-17A dimer; assay: FP competition, competitor: tracer BCY2311
Method: (§1) Affinity determination by fluorescence polarization (FP) competition. Bicycles were screened to determine affinity (Ki) in a fluorescence polarisation assay where in competition with a bicycle labelled with fluorescein (referred to as tracer) with a known affinity for IL-17A. Peptides were diluted to an appropriate concentration in assay buffer (PBS+0.01% Tween20, adjusted to pH7.4 using NaOH (1M)) with a maximum of 1% DMSO, then serially diluted 1 in 2 into assay buffer. Into black 384-well low volume plates, 5 µL of diluted peptide was added to the plate followed by 10 μL of IL-17A (75 nM) then 10 μL tracer added to a final concentration of 1 nM. Measurements were conducted on a BMG PHERAstar FS equipped with an “FP 485 520 520” optic module which excites at 485 nm and detects parallel and perpendicular emission at 520 nm. The PHERAstar FS was set at 25° C. with 200 flashes per well and a positioning delay of 0.1 second, with each well measured at 5 to 10 minute intervals for 60 minutes. The gain used for measurements was determined at the point of experiment on a tracer alone well. Data analysis was performed in Dotmatics where mP values were fit to the Cheng Prusoff equation in order to generate a Ki value.
(§2) Selected peptide ligands of the invention were tested in the above mentioned human FP competition assay and the results are shown in Table 3: […]

human IL-17A dimer [2] = target: T1, human IL-17A dimer; assay: FP competition, competitor: tracer BCY2311; Ki Mean column, n=2
Method: as §1, §2

human IL-17A dimer [3] = target: T1, human IL-17A dimer; assay: FP competition, competitor: tracer BCY2315
Method: as §1, §2

Binder | Ki (human IL-17A dimer [1]) [nM] | Ki (human IL-17A dimer [2]) [nM] | Ki (human IL-17A dimer [3]) [nM]
ACDADPELCRFLNLDCA (Ci, Cii and Ciii cyclised with TBMB, Bicyclic peptide) [BCY2283] | 88.5 | 88.3 | –
ACDGDPELCRFLNLDCA (Ci, Cii and Ciii cyclised with TBMB, Bicyclic peptide) [BCY2284] | 261 | – | –
ACDTDPELCMFLNLDCA (Ci, Cii and Ciii cyclised with TBMB, Bicyclic peptide) [BCY2285] | 576 | – | –
ACDTDPELCRFLRLDCA (Ci, Cii and Ciii cyclised with TBMB, Bicyclic peptide) [BCY2287] | 81.9 | – | –
ACDTDPELCRFLNVDCA (Ci, Cii and Ciii cyclised with TBMB, Bicyclic peptide) [BCY2288] | 153 | – | –
ACDTDPELCRFLNLKCA (Ci, Cii and Ciii cyclised with TBMB, Bicyclic peptide) [BCY2289] | 108 | – | –
ACDTDPELCRFLNLPCA (Ci, Cii and Ciii cyclised with TBMB, Bicyclic peptide) [BCY2290] | 95.2 | – | –
ACDDELYCFLNASCA (Ci, Cii and Ciii cyclised with TBMB, Bicyclic peptide) [BCY2292] | 571 | – | –
CPNELYCFVTGNC (Ci, Cii and Ciii cyclised with TBMB; N-terminal acetyl (Ac), Bicyclic peptide) [BCY2294] | 1030 | 1020 | –
CANELYCFVTGNC (Ci, Cii and Ciii cyclised with TBMB; N-terminal acetyl (Ac), Bicyclic peptide) [BCY2295] | 694 | 694 | –
CPNELACFVTGNC (Ci, Cii and Ciii cyclised with TBMB; N-terminal acetyl (Ac), Bicyclic peptide) [BCY2299] | 3350 | 3350 | –
CPNELYCFVAGNC (Ci, Cii and Ciii cyclised with TBMB; N-terminal acetyl (Ac), Bicyclic peptide) [BCY2302] | 1920 | 1880 | –
CPNELYCFVTGAC (Ci, Cii and Ciii cyclised with TBMB; N-terminal acetyl (Ac), Bicyclic peptide) [BCY2304] | 366 | 365 | –
ACDDSLYCFLTGDCA (Ci, Cii and Ciii cyclised with TBMB, Bicyclic peptide) [BCY2305] | 240 | – | –
ACDPDSLECWIFNQTCA (Ci, Cii and Ciii cyclised with TBMB, Bicyclic peptide) [BCY2230] | 633 | – | –
ACPENELYCFLSSQQCA (Ci, Cii and Ciii cyclised with TBMB, Bicyclic peptide) [BCY2231] | 1500 | – | –
CYEDELCEFLGLC (Ci, Cii and Ciii cyclised with TBMB; N-terminal acetyl (Ac), Bicyclic peptide) [BCY2236] | 57.4 | 56.3 | –
CAEDELCEFLGLC (Ci, Cii and Ciii cyclised with TBMB; N-terminal acetyl (Ac), Bicyclic peptide) [BCY2237] | 110 | – | –
CYSDELCEFLGLC (Ci, Cii and Ciii cyclised with TBMB; N-terminal acetyl (Ac), Bicyclic peptide) [BCY2238] | 62.9 | – | –
CYEDALCEFLGLC (Ci, Cii and Ciii cyclised with TBMB; N-terminal acetyl (Ac), Bicyclic peptide) [BCY2241] | 278 | – | –
CYEDELCEFLALC (Ci, Cii and Ciii cyclised with TBMB; N-terminal acetyl (Ac), Bicyclic peptide) [BCY2248] | 241 | – | 60.6
CYEDELCEFLNLC (Ci, Cii and Ciii cyclised with TBMB; N-terminal acetyl (Ac), Bicyclic peptide) [BCY2250] | – | – | 113
ACPDLELCEFLGLCA (Ci, Cii and Ciii cyclised with TBMB, Bicyclic peptide) [BCY2262] | 213 | – | –
ACPDDELYCFLTGFKCA (Ci, Cii and Ciii cyclised with TBMB, Bicyclic peptide) [BCY2266] | 165 | – | –
ACDDDELYCFLTNQQCA (Ci, Cii and Ciii cyclised with TBMB, Bicyclic peptide) [BCY2267] | 118 | – | –
ACAEDELYCFLTNHTCA (Ci, Cii and Ciii cyclised with TBMB, Bicyclic peptide) [BCY2268] | 188 | – | –
ACPDDELYCFLTGQHCA (Ci, Cii and Ciii cyclised with TBMB, Bicyclic peptide) [BCY2269] | 78.7 | 78.4 | –
ACPDDELYCFLTGVPCA (Ci, Cii and Ciii cyclised with TBMB, Bicyclic peptide) [BCY2270] | 68.8 | 67.5 | 38.7
ACDTDVELCKFLGLDCA (Ci, Cii and Ciii cyclised with TBMB, Bicyclic peptide) [BCY2274] | 51.5 | 50.8 | 35.8
